Only a part is listed here, and it is no random draw. Calls of active or inactive are those of the source.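 Rule for the calls: active = GFP response relative to DMSO above a set limit, near screen average plus 3 SD (cut at about 150% in these data); inconclusive = fewer than 70 cells counted for the yeast strain; inactive = the rest.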
assay: modulators of AGP1-GFP expression in yeast TOR pathway, primary screen, cell-based, multiplex flow cytometry, S. cerevisiae, MLPCN library (AID 2066); conditions: 3 h, at 10 µM, hits give high values, GFP as percent of DMSO wells;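 note: median GFP channel fluorescence of the gated AGP1 strain per well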

**Q.** Which GFP response vs DMSO does the source give for `CN(C(=O)Cc1ccc(Cl)c(Cl)c1)[C@H]1CCCC[C@H]1N1CCCC1` here?
**A.** The GFP response vs DMSO was inactive: 90%.

**Q.** For `NC(=O)c1cc([N+](=O)[O-])cc([N+](=O)[O-])c1N`, which GFP response vs DMSO is on record?
**A.** The GFP response vs DMSO was inactive: 94%.

**Q.** With `Clc1ccc(Cl)c(NC2=NCC(CBr)S2)c1` (configuration not stated) as the molecule, how does the GFP response vs DMSO read?
**A.** The GFP response vs DMSO was inactive: 89.2%.

**Q.** Which GFP response vs DMSO does the source give for `CN1CCCC(OC(=O)C(c2ccccc2)c2ccccc2)C1` (configuration not stated) here?
**A.** Its GFP response vs DMSO is inactive: 105%.

**Q.** Which GFP response vs DMSO does the source give for `Cc1ccc(OP(=O)(Nc2nccs2)Oc2ccc(C)cc2)cc1` here?
**A.** Its GFP response vs DMSO is inactive: 109%.

**Q.** With `COc1ccccc1OP(=O)(Nc1ccc(C)cn1)Oc1ccccc1OC` as the molecule, how does the GFP response vs DMSO read?
**A.** The GFP response vs DMSO was inactive: 101%.

**Q.** With `Cc1c2non([O-])c-2c(C)[n+](=O)[n+]1[O-]` as the molecule, how does the GFP response vs DMSO read?
**A.** Its GFP response vs DMSO is inactive: 92.3%.

**Q.** With `O=C(NC(Sc1ccncn1)C(Cl)(Cl)Cl)c1ccccc1` (configuration not stated) as the molecule, how does the GFP response vs DMSO read?
**A.** Its GFP response vs DMSO is inactive: 102%.

**Q.** Which GFP response vs DMSO does the source give for `Oc1ccccc1CNc1ccccn1` here?
**A.** The GFP response vs DMSO was inactive: 98.7%.

**Q.** With `CC(C)CC(=O)NC(Sc1ccc(Cl)cc1)C(Cl)(Cl)Cl` (configuration not stated) as the molecule, how does the GFP response vs DMSO read?
**A.** The GFP response vs DMSO was inactive: 102%.

**Q.** Which GFP response vs DMSO does the source give for `Nc1cc(N)c2nonc2c1[N+](=O)[O-]` here?
**A.** Its GFP response vs DMSO is inactive: 99.6%.

**Q.** For `CCOc1ccc(C2=NCC(CBr)S2)cc1` (configuration not stated), which GFP response vs DMSO is on record?
**A.** The GFP response vs DMSO was inactive: 103%.

**Q.** With `O=P1(Nc2nc3ccc(Cl)cc3s2)COc2ccccc2O1` (configuration not stated) as the molecule, how does the GFP response vs DMSO read?
**A.** The GFP response vs DMSO was inactive: 98.1%.

**Q.** With `CC(C)(C)C(=O)NC(Sc1ccccc1)C(Cl)(Cl)Cl` (configuration not stated) as the molecule, how does the GFP response vs DMSO read?
**A.** The GFP response vs DMSO was inactive: 88.6%.

**Q.** With `C[C@@H]1C=CCP(=O)(Oc2ccccc2)O1` (some centres not stated) as the molecule, how does the GFP response vs DMSO read?
**A.** The GFP response vs DMSO was inactive: 89.8%.

**Q.** Which GFP response vs DMSO does the source give for `C[C@H]1OP(=O)(Oc2ccccc2)C[C@@H]2O[C@@H]21` (some centres not stated) here?
**A.** The GFP response vs DMSO was inactive: 89.1%.

**Q.** With `Cc1ccccc1CN(C)C(=O)COC(=O)C(O)(c1ccccc1)c1ccccc1` as the molecule, how does the GFP response vs DMSO read?
**A.** The GFP response vs DMSO was inactive: 106%.

**Q.** Which GFP response vs DMSO does the source give for `CC(=O)c1ccc(N2CC2c2ccncc2)cc1` (configuration not stated) here?
**A.** The GFP response vs DMSO was inactive: 100%.

**Q.** Which GFP response vs DMSO does the source give for `CC(=O)Nc1ccc(Oc2c([N+](=O)[O-])cc([N+](=O)[O-])cc2[N+](=O)[O-])cc1` here?
**A.** Its GFP response vs DMSO is inactive: 94.8%.

**Q.** With `CC(=O)Nc1ccc([As](=O)(O)O)c(O)c1` as the molecule, how does the GFP response vs DMSO read?
**A.** The GFP response vs DMSO was inactive: 99.7%.

**Q.** Which GFP response vs DMSO does the source give for `CCOC(=O)NC(Sc1ccccc1)C(Cl)(Cl)Cl` (configuration not stated) here?
**A.** The GFP response vs DMSO was inactive: 105%.

**Q.** For `Cc1ccc(NP(=O)(Oc2cccc(C)c2)Oc2cccc(C)c2)nc1`, which GFP response vs DMSO is on record?
**A.** The GFP response vs DMSO was inactive: 96.8%.

**Q.** With `c1ccc(-c2nn[nH]n2)c(-c2nn[nH]n2)c1` as the molecule, how does the GFP response vs DMSO read?
**A.** Its GFP response vs DMSO is inactive: 99%.

**Q.** With `CCNC(=S)/N=C(\N)N[N+](=O)[O-]` as the molecule, how does the GFP response vs DMSO read?
**A.** The GFP response vs DMSO was inactive: 103%.

**Q.** For `O=C(NC1CCS(=O)(=O)C1)NP(=S)(Oc1ccccc1)Oc1ccccc1` (configuration not stated), which GFP response vs DMSO is on record?
**A.** The GFP response vs DMSO was inactive: 95.7%.

**Q.** For `CCC(=O)N1C2C3N(C(=O)CC)C1C1N(C(=O)CC)C(C(N1C(=O)CC)N3C(=O)CC)N2C(=O)CC`, which GFP response vs DMSO is on record?
**A.** Its GFP response vs DMSO is inactive: 106%.

**Q.** Which GFP response vs DMSO does the source give for `O=C(OC1CN2CCC1CC2)c1ccccc1` (configuration not stated) here?
**A.** The GFP response vs DMSO was inactive: 96.5%.

**Q.** For `Cc1ccc(OP(=O)(Nc2ccccn2)Oc2ccc(C)cc2)cc1`, which GFP response vs DMSO is on record?
**A.** Its GFP response vs DMSO is inactive: 100%.

**Q.** For `CC(=O)NC(SC(=S)N(CC(C)C)CC(C)C)C(Cl)(Cl)Cl` (configuration not stated), which GFP response vs DMSO is on record?
**A.** Its GFP response vs DMSO is inactive: 93.7%.

**Q.** For `COC(=O)c1cc2c(s1)N=C(c1ccccc1)N(C)P2(=O)N1CCOCC1` (configuration not stated), which GFP response vs DMSO is on record?
**A.** Its GFP response vs DMSO is inactive: 111%.

**Q.** For `CN(C)C(=O)Oc1noc2ccccc12`, which GFP response vs DMSO is on record?
**A.** The GFP response vs DMSO was inactive: 93.3%.

**Q.** With `Cc1ccccc1OP(=O)(Nc1ccccn1)Oc1ccccc1C` as the molecule, how does the GFP response vs DMSO read?
**A.** The GFP response vs DMSO was inactive: 101%.

**Q.** Which GFP response vs DMSO does the source give for `CC(NC(=O)COC(=O)C(O)(c1ccccc1)c1ccccc1)c1ccccc1` (configuration not stated) here?
**A.** Its GFP response vs DMSO is inactive: 99.8%.

**Q.** Which GFP response vs DMSO does the source give for `O=P(Nc1ccccn1)(c1ccc(Br)cc1)c1ccc(Br)cc1` here?
**A.** Its GFP response vs DMSO is inactive: 106%.

**Q.** For `CN(C)C1(CNC(=O)c2ccc(Cl)c(S(N)(=O)=O)c2)CCCCC1`, which GFP response vs DMSO is on record?
**A.** The GFP response vs DMSO was inactive: 98.6%.

**Q.** Which GFP response vs DMSO does the source give for `C[C@H]1OP(=O)(Oc2ccccc2)[C@H](O)[C@H](O)[C@H]1N=[N+]=[N-]` (some centres not stated) here?
**A.** Its GFP response vs DMSO is inactive: 84.8%.

**Q.** Which GFP response vs DMSO does the source give for `O=P(Nc1nc2ccccc2s1)(c1ccccc1)c1ccccc1` here?
**A.** The GFP response vs DMSO was inactive: 112%.

**Q.** With `O=[As](O)(c1ccccc1)c1ccc(O)cc1` as the molecule, how does the GFP response vs DMSO read?
**A.** Its GFP response vs DMSO is inactive: 99.8%.

**Q.** With `O=[N+]([O-])c1ccc(O)c(/C=N/Nc2ccc([N+](=O)[O-])cc2[N+](=O)[O-])c1` as the molecule, how does the GFP response vs DMSO read?
**A.** Its GFP response vs DMSO is inactive: 99.2%.

**Q.** With `O=[N+]([O-])c1ncn(CCn2cnc([N+](=O)[O-])n2)n1` as the molecule, how does the GFP response vs DMSO read?
**A.** Its GFP response vs DMSO is inactive: 102%.

**Q.** Which GFP response vs DMSO does the source give for `CC(=O)NC(SC(=S)N(C)C)C(Cl)(Cl)Cl` (configuration not stated) here?
**A.** Its GFP response vs DMSO is inactive: 94%.

**Q.** With `O=C(OC1CN2CCC1CC2)c1cccc(Cl)c1` (configuration not stated) as the molecule, how does the GFP response vs DMSO read?
**A.** The GFP response vs DMSO was inactive: 106%.

**Q.** For `Nc1ccc([As](=O)(O)c2ccc([N+](=O)[O-])cc2)cc1`, which GFP response vs DMSO is on record?
**A.** The GFP response vs DMSO was inactive: 106%.

**Q.** For `C(Cc1nn[nH]n1)Cc1nn[nH]n1`, which GFP response vs DMSO is on record?
**A.** The GFP response vs DMSO was inactive: 97.1%.

**Q.** Which GFP response vs DMSO does the source give for `CC(C)C(=O)NC(Sc1ccccc1)C(Cl)(Cl)Cl` (configuration not stated) here?
**A.** The GFP response vs DMSO was inactive: 94.3%.

**Q.** With `O=P(Nc1nccs1)(c1ccccc1)c1ccccc1` as the molecule, how does the GFP response vs DMSO read?
**A.** The GFP response vs DMSO was inactive: 103%.

**Q.** Which GFP response vs DMSO does the source give for `c1nnnn1CCn1cnnn1` here?
**A.** The GFP response vs DMSO was inactive: 102%.
